Among the data in article PMC8625207, “Antikinetoplastid Activity of Sesquiterpenes Isolated from the Zoanthid Palythoa aff. clavata” (Pharmaceuticals, 2021) are CC50 values, retold here.

The series has as its system murine macrophages J744A.1. As to the kind of experiment: alamarBlue cytotoxicity on murine macrophages. The format is cell-based. Conditions: read-out: Macrophages J744A.1 CC50; 24 h of incubation. A general note: Resazurin is reduced to fluorescent resorufin, in cell work by metabolically active cells.

Usually CC50 stands for the concentration that lowers cell viability or growth by half.

`C=C1CC[C@@H](O)[C@]2(C)CC[C@H]3C(=C)C(=O)O[C@@H]3[C@@H]12` [Reynosin (13), reynosin]: the CC50 amounted to 77.9 µM.
The same measure for `C=C1C(=O)O[C@@H]2[C@H]3C(C)=CC[C@@H](O)[C@]3(C)CC[C@@H]12` [Santamarine (12), santamarine]: 77.1 µM.
